# Measured affinities in a library of Ab-14 light chain variants

Values reported by Li et al. 2023, doi:10.1038/s41467-023-39022-2 (FLAb copy).

The target is the same throughout: PDVDLGDISGINAS, from the HR2 region of SARS-CoV-2 spike.

Each scFv is VH, a 15-residue (Gly4Ser)3 linker, VL, as in the parent Ab-14, and differs from it in the CDRs of the light chain only.
VH: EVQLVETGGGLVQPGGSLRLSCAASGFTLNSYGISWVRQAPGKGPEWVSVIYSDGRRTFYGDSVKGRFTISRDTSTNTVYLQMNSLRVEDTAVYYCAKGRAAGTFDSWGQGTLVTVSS
VL: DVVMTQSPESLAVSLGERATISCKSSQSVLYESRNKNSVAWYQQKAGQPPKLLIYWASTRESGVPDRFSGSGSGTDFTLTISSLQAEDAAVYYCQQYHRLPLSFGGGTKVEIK

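The starting antibody came from a phage panning campaign against this peptide. Designed CDR sequences, proposed from the first random library and measured here. Group labels follow the data file (En: ensemble of fine-tuned language models; GP: Gaussian process model; HC: hill climbing; Gen: genetic algorithm; Gibbs: Gibbs sampling; a sequence that several methods proposed may carry one label only). The scFvs were displayed on barcoded MATa yeast, the peptide on MATalpha yeast. After mating in shaken culture at 30 °C for 16 h, diploids were selected and their barcode pairs sequenced. Read counts were normalised to the haploid input and turned into Kd by a linear fit to BCL2-family pairs of known affinity, for each replicate. The assay was run in six technical replicates.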

Each variant is given by its three light chain CDRs, as the data file delimits them; those of the parent are KSSQSVLYESRNKNSVA, WASTRES, QQYHRLPLS. Variants here have more than six changes. Affinities are written as log10 Kd with Kd in nM; a lower number is a better binder. The mean shown is taken over the replicates in which the pair was detected. "n.d." marks a missing value. The strain was present, yet no cells mated with the target were sequenced in that replicate, which points to weak or no binding. The authors' rule: three or more of the six replicates give a measured affinity, fewer mean a poor binder.

CDR-L1	CDR-L2	CDR-L3	group	log10 Kd (nM) by replicate	mean log10 Kd (nM)	control signals
HVHMEMAEEKEIRYNIA	DASMRYA	QQYVRLPLG	En_Gibbs	0.51 1.05 0.29 0.18 0.14 0.37	0.42	0/18
IISQSFLGEYHNINSVA	QTSERGS	QQYDRLPLS	En_HC	0.72 0.53 0.41 0.46 0.35 0.58	0.51	0/18
TISQMTSWMSNLKNNVA	EVSTREK	QQYDRLPLS	En_Gen	1.65 1.31 0.85 0.93 1.25 1.73	1.29	0/18
SLAESVHMESRNKNSVA	DNSTRES	QHYHRLPLS	En_HC	2.25 n.d. n.d. n.d. n.d. n.d.	2.25	1/18 (2.72)
KWQKDSLFMGQYMNNIA	NTSLRTM	QQYYRLPLT	En_Gibbs	0.14 0.11 -0.05 0.00 -0.01 0.12	0.05	0/18
KLSSTSGMEHVSRNSVA	ELVTRMS	QQYNRLPLS	En_Gen	0.37 0.36 0.34 0.25 0.27 0.50	0.35	2/18 (3.18)
MISQLYNMGQFAINSVA	QASIRNQ	QQYDRLPLI	En_Gen	1.74 1.49 1.35 0.96 1.81 1.73	1.51	0/18
TISQIYNMGQFAINSVA	QASERCN	QQYDRLPLM	En_Gen	0.79 0.61 0.42 0.53 0.25 0.57	0.53	1/18 (3.71)
KISQMVRVGATHNNSIA	EEVTRAK	QQYHRLPLA	En_Gen	1.72 2.44 2.22 n.d. 1.66 2.39	2.09	0/18
SISGFMKTLSSHKNNVA	DMTNRGD	QQYDRLPLS	En_Gen	0.43 0.90 0.23 0.73 0.65 0.46	0.57	2/18 (2.83)
MISQLMNMGSFAINSVA	QASIRNS	QQYDRLPLI	En_Gen	1.31 n.d. n.d. n.d. n.d. n.d.	1.31	0/18
KFSQMANSMSVSHSAVA	EMSTREN	QQYNRLPLA	En_Gen	0.74 0.09 0.39 0.41 0.60 0.43	0.44	2/18 (1.11)
KLSLFYRVETQNKYSVA	DNSTRES	QDYDRLPLS	En_HC	n.d. 2.51 n.d. n.d. n.d. n.d.	2.51	0/18
MISQLMNLGQFAINSVA	QAEIRNQ	QQYDRLPLG	En_Gen	2.43 2.11 n.d. n.d. n.d. n.d.	2.27	3/18 (2.36)
KLSQSMLYELRNLNSVA	HASQRMS	QQYHRLPLS	GP_Gibbs	0.59 1.15 0.84 0.72 0.99 0.71	0.83	1/18 (3.51)
ILYDSVGTLSRNKNSVA	DNSTRCS	QQYDRLPLS	En_HC	1.82 2.21 2.11 2.46 3.28 3.64	2.59	2/18 (2.22)
KLSMSYRFETEEKNSIA	ELVTRMR	QQYHRLPLS	En_HC	n.d. 1.69 1.27 n.d. 2.02 3.74	2.18	0/18
KLNKHAWDFNATWNSVA	DHSMRVT	QDYIRLPLT	En_Gibbs	1.10 0.80 1.23 1.05 1.14 1.23	1.09	1/18 (2.09)
KSSQSTLYESGMKNSVA	NASKRMQ	QQYHRLPLS	GP_Gibbs	0.50 0.26 0.28 -0.01 0.35 0.33	0.28	1/18 (2.88)
MLSMVTEGMVRKHDSVA	DNSTREN	QQYDRLPLS	En_Gen	1.61 1.15 1.25 1.60 1.46 1.87	1.49	2/18 (2.60)
KIQMFFGTLMEQINSIA	NSEVIVQ	QSYFRLPLS	En_Gibbs	2.99 2.69 1.98 1.85 2.18 1.42	2.18	0/18
IFSQSVLMGNLMKNSVA	QASTRFS	QQYHRLPLI	En_HC	1.09 0.87 0.84 1.22 2.25 1.65	1.32	1/18 (3.16)
KLEEEADVITESGNSVA	EMSMVMD	QQYHRLPLA	En_Gibbs	1.68 1.40 1.63 1.68 1.22 1.57	1.53	1/18 (2.82)
HITYGMMVHGRHSSSIA	QAETRAK	QQYDRLPLM	En_Gen	1.72 1.42 1.33 1.39 1.66 1.27	1.46	3/18 (2.93)
KHSPSEEYESRDKNSVA	HASTRCS	QQYHRLPLS	GP_Gibbs	0.72 0.89 0.56 0.66 0.84 1.37	0.84	0/18
KIPQSWLGEWRNKNSVA	NASQRES	QQYHRLPLS	GP_Gibbs	-0.01 -0.17 -0.18 -0.30 -0.22 0.16	-0.12	1/18 (2.95)
KLQNLMGTMGKQNQAIA	QGAITRV	QQYQRLPLW	En_Gibbs	n.d. n.d. n.d. n.d. n.d. n.d.	n.d.	0/18
KLSMTQELEHVNRNSVA	ELVTRIS	QQYNRLPLS	En_Gen	n.d. n.d. 1.18 1.84 3.21 n.d.	2.07	0/18
KLKLSNSFSLRGTRAIA	DGSTRAH	QQYHRLPLT	En_Gibbs	0.51 0.40 0.46 0.69 0.25 0.77	0.51	0/18
HITYGMMVAGRHSSSIA	QAEERAK	QQYDRLPLA	En_Gen	0.35 0.38 0.11 0.21 0.14 0.47	0.28	2/18 (2.84)
HAYQSGLYEQRNQNSVA	SASMRES	QQYHRLPLS	GP_Gibbs	0.30 0.24 0.13 0.10 0.08 0.36	0.20	1/18 (3.42)
MISQLYNMGSFAINSVA	QASQRNE	QQYDRLPLL	En_Gen	0.87 0.90 0.88 0.51 0.45 1.01	0.77	0/18
KISFNTLIESKNLNSVA	EMTTREY	QDYDRLPLS	En_HC	n.d. 1.10 0.83 n.d. 0.71 1.82	1.11	0/18
LMNERMEMGENQQHNIA	NAAHLVH	QDYHRLPLG	En_Gibbs	1.32 1.24 0.69 1.27 1.10 1.61	1.21	0/18
MLSEVLHMLGAKKNSIA	DLVIRAN	QQYHRLPLM	En_Gen	1.02 0.67 0.73 0.36 1.10 1.70	0.93	0/18
MISQLYNMGSFAINSVA	QASLRNE	QQYDRLPLI	En_Gen	2.69 1.79 1.64 1.76 0.82 1.26	1.66	0/18

2 of these entries, quoted again:

{"CDR-L1": "KLEEEADVITESGNSVA", "CDR-L2": "EMSMVMD", "CDR-L3": "QQYHRLPLA", "group": "En_Gibbs", "log10 Kd (nM) by replicate": "1.68 1.40 1.63 1.68 1.22 1.57", "mean log10 Kd (nM)": "1.53", "control signals": "1/18 (2.82)"}
{"CDR-L1": "KLSLFYRVETQNKYSVA", "CDR-L2": "DNSTRES", "CDR-L3": "QDYDRLPLS", "group": "En_HC", "log10 Kd (nM) by replicate": "n.d. 2.51 n.d. n.d. n.d. n.d.", "mean log10 Kd (nM)": "2.51", "control signals": "0/18"}

Background: pairings of all light chain designs with three empty control strains gave a value in 4% of cases (median 2.64, 5th percentile 1.59). Values in that range, when seen in few replicates, are hard to tell from nonspecific mating. For each scFv, signals with the empty controls are counted beside the result, with their mean in brackets. A sequence measured in both rounds can read differently, since the two assays cover different ranges.